Data as given in patent US4352880A (priority 1979, dated 1982).

Key:
[1] = Spectrophotometric half-lifetime; settings: minimal medium/NaCl/phosphate buffer pH=7.0/nutrient medium, 37° C.
S. typhimurium TA1535 [2] = assay: Diffusion bioassay for mutagenicity (mutagenic zone radius), direct mutagens; settings: for rmut (radius of mutagenic zone) / Cmut (minimal mutagenic concentration) / rmut /R / Cmut /co /s: R = 2.5 cm; for rmut (radius of mutagenic zone): 21/2 days; for Cmut /co /s: from figure
[3] = Diffusion coefficient calculated from DM^1/2 = constant; type: physicochemical; settings: calculated from molecular weight and data for glucose
S. typhimurium TA 1535 = assay: Effect of bacteria number on the mutagenic and toxic zones (diffusion bioassay); settings: 25 μl of 1000 μg/ml per disc
S. typhimurium TA1535 [4] = assay: Homogeneous bioassay, minimum mutagenic concentration; settings: 90% confidence intervals
S. typhimurium TA100 = assay: Diffusion bioassay (reversion assay) with S. typhimurium TA100; settings: for rmut (mutagenic radius zone): R 2.5 cm

CN(N=O)C(=N)N[N+](=O)[O-]
.tau.1/2 Spectroscopically [1]: 2.25 h
half-lifetime .tau.1/2 from diffusion bioassay (S. typhimurium TA1535 [2]; 21/2 days incubation, TA 1535): 2.20 h
.tau.1/2 (Table 16) (S. typhimurium TA1535 [2]; Table 16): 2.25 h
rmut (radius of mutagenic zone) (S. typhimurium TA1535 [2]; co 0.01 mg/ml): 0.88 ± 0.05 cm
rmut (radius of mutagenic zone) (S. typhimurium TA1535 [2]; co 0.1 mg/ml): 1.55 ± 0.04 cm
rmut (radius of mutagenic zone) (S. typhimurium TA1535 [2]; co 0.5 mg/ml): 1.98 ± 0.02 cm
rmut (radius of mutagenic zone) (S. typhimurium TA1535 [2]; co 1 mg/ml): 2.22 ± 0.05 cm
Cmut (minimal mutagenic concentration) (S. typhimurium TA1535 [2]; co /s 2.21 μg/ml): 0.0072 µg/mL
rmut /R (S. typhimurium TA1535 [2]; co /s 2.21 μg/ml): 0.37 ± 0.02
Cmut /co /s (S. typhimurium TA1535 [2]; co /s 2.21 μg/ml): 3.2 × 10^-3
Cmut (minimal mutagenic concentration) (S. typhimurium TA1535 [2]; co /s 22.1 μg/ml): 0.0053 µg/mL
rmut /R (S. typhimurium TA1535 [2]; co /s 22.1 μg/ml): 0.62 ± 0.01
Cmut /co /s (S. typhimurium TA1535 [2]; co /s 22.1 μg/ml): 2.4 × 10^-4
Cmut (minimal mutagenic concentration) (S. typhimurium TA1535 [2]; co /s 110.52 μg/ml): 0.0045 µg/mL
rmut /R (S. typhimurium TA1535 [2]; co /s 110.52 μg/ml): 0.79 ± 0.01
Cmut /co /s (S. typhimurium TA1535 [2]; co /s 110.52 μg/ml): 4.1 × 10^-5
Cmut (minimal mutagenic concentration) (S. typhimurium TA1535 [2]; co /s 221.04 μg/ml): 0.0033 µg/mL
rmut /R (S. typhimurium TA1535 [2]; co /s 221.04 μg/ml): 0.88 ± 0.02
Cmut /co /s (S. typhimurium TA1535 [2]; co /s 221.04 μg/ml): 1.5 × 10^-5
Cmut threshold value (mean) (S. typhimurium TA1535 [2]; diffusion method, brackets: 90% confidence intervals): 0.0051(0.0033, 0.0081) μg/ml
.tau.1/2 Parametrically (S. typhimurium TA1535 [2]; from slope of ln co vs. rmut, experiments on plates): 2.20 h
Diffusion coefficient D [3]: 7.2 × 10^-6 cm^2 /sec
rtox (S. typhimurium TA 1535; +HIS, 6.4 × 10^4 bacteria): 1.40 ± 0.05 cm
rtox (S. typhimurium TA 1535; +HIS, 6.4 × 10^5 bacteria): 1.35 ± 0.04 cm
rtox (S. typhimurium TA 1535; +HIS, 6.4 × 10^6 bacteria): 1.31 ± 0.07 cm
rtox (S. typhimurium TA 1535; +HIS, 6.4 × 10^7 bacteria): 1.17 ± 0.04 cm
rtox (S. typhimurium TA 1535; +HIS, 6.4 × 10^8 bacteria): 1.1 ± 0.05 cm
rmut (S. typhimurium TA 1535; -HIS, 6.4 × 10^4 bacteria): 2.13 ± 0.02 cm
rtox (S. typhimurium TA 1535; -HIS, 6.4 × 10^4 bacteria): 1.63 ± 0.05 cm
rmut (S. typhimurium TA 1535; -HIS, 6.4 × 10^5 bacteria): 2.24 ± 0.04 cm
rtox (S. typhimurium TA 1535; -HIS, 6.4 × 10^5 bacteria): 1.53 ± 0.07 cm
rmut (S. typhimurium TA 1535; -HIS, 6.4 × 10^6 bacteria): 2.25 ± 0.04 cm
rtox (S. typhimurium TA 1535; -HIS, 6.4 × 10^6 bacteria): 1.39 ± 0.04 cm
rmut (S. typhimurium TA 1535; -HIS, 6.4 × 10^7 bacteria): 2.30 ± 0.04 cm
rtox (S. typhimurium TA 1535; -HIS, 6.4 × 10^7 bacteria): 1.22 ± 0.02 cm
rmut (S. typhimurium TA 1535; -HIS, 6.4 × 10^8 bacteria): 2.26 ± 0.05 cm
rtox (S. typhimurium TA 1535; -HIS, 6.4 × 10^8 bacteria): 1.06 ± 0.06 cm
C mut^hom threshold value (S. typhimurium TA1535 [4]): 0.012 ± 0.069
calculated .tau.1/2 lifetime (S. typhimurium TA100; TA100): 2.20 h
half-lifetime .tau.1/2 from diffusion bioassay (S. typhimurium TA100; TA 100, 21/2 days): 2.2 h
size of mutagenic zones compared with TA1535 (S. typhimurium TA100; TA100 vs TA1535, given concentration): Essentially the same size of mutagenic zones
rmut (mutagenic radius zone) (S. typhimurium TA100; co 0.01 mg/ml, 21/2 days): 0.92 ± 0.05 cm
rmut (mutagenic radius zone) (S. typhimurium TA100; co 0.1 mg/ml, 21/2 days): 1.57 ± 0.06 cm
rmut (mutagenic radius zone) (S. typhimurium TA100; co 0.5 mg/ml, 21/2 days): 1.95 ± 0.02 cm
rmut (mutagenic radius zone) (S. typhimurium TA100; co 1 mg/ml, 21/2 days): 2.16 ± 0.05 cm
